Assay results taken from paper PMC4909612 (EBioMedicine, 2016).

Legend:
[1] = biological target: human PDGFR-β (Met 1-Lys 531) (Homo sapiens, UniProt P09619); test: Biacore T200 SPR binding to immobilised PDGFR-β extracellular domain
[2] = biological target: human PDGFR-β (Met 1-Lys 531) with the Phe136/Ala136 and Phe138/Ala138 mutations (Homo sapiens, UniProt P09619, F136A/F138A); test: Biacore SPR binding to mutated PDGFR-β

- binding to wild-type PDGFR-β [1]: firmly bind
- binding to Phe136/Ala136 and Phe138/Ala138 mutated forms of PDGFR-β [2]: minimally bound
Substance: PDGF-BB: platelet-derived growth factor ligand of PDGFR-β
